# Source: PubChem BioAssay (EPA / NIEHS)
# The entries are a selection whose mix differs from that of the whole data set. Results filed as inconclusive are left out. The source made the active and inactive calls. Rule for the calls, unless noted: active = hit-call score of the fitted dose curve at least 0.9, where 1 is the maximum; inactive = score below 0.9.
# Legend:
# [1] = APR_HepG2_CellCycleArrest_24hr: Apredica 24-hour HepG2 Assay for Cell Cycle Arrest (AID 2282905); details: imaging, actives raise or lower the signal;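 note: cell cycle arrest scored as ratio of 2N to 4N nuclear DNA content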
# Procedure, shortened: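 HepG2 cells were exposed to compounds at 0.39–200 uM (ten concentrations, duplicate) in 0.5% v/v DMSO for 24 hr. After formaldehyde fixation and Triton permeabilization, Hoechst 33342-stained nuclei were imaged at 20x; DNA content was quantified, with bidirectional fitting against DMSO.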
# [2] = APR_HepG2_NuclearSize_24hr: Apredica 24-hour HepG2 Assay for Nuclear Size (AID 2282907); details: high-content imaging, actives raise or lower the signal
# Procedure, shortened: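 HepG2 human liver cells were exposed for 24 hr to compounds at 0.39–200 uM (ten concentrations, duplicate) in 0.5% v/v DMSO. They were then formaldehyde-fixed, Triton-permeabilized and Hoechst 33342-stained, and nuclear diameter was imaged at 20x. Bidirectional fits were made against DMSO.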
# [3] = APR_HepG2_CellLoss_24hr: Apredica 24-hour HepG2 Assay for Cell Loss (AID 2282908); details: high-content imaging;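 note: fit in both directions so a hit may be cell loss or gain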
# Description: APR_HepG2_24hr is a cell-based, multiplexed-readout assay that uses HepG2, a human liver cell line, with measurements taken at 24 hours after chemical dosing in a 384-well plate.APR_HepG2_CellLoss_24hr is one of 10 assay component(s) measured or calculated from the APR_HepG2_24hr assay. It is designed to make measurements of cell number, a form of viability reporter, as detected with fluorescence intensity signals by HCS Fluorescent Imaging technology.Data from the assay component APR_HepG2_CellLoss_24hr was analyzed into 1 assay endpoint. This assay endpoint, APR_HepG2_CellLoss_24hr, was analyzed with bidirectional fitting relative to DMSO as the negative control and baseline of activity. Using a type of viability reporter, measures of all nuclear dna for gain or loss-of-signal activity can be used to understand the viability at the cellular-level. Furthermore, this assay endpoint can be referred to as a secondary readout, because this assay has produced multiple assay endpoints where this one serves a viability function. To generalize the intended target to other relatable targets, this assay endpoint is annotated to the cell cycle intended target family, where the subfamily is proliferation.
# (§1) Cells were treated with dimethyl sulfoxide (DMSO) as a solvent control at a final concentration of 0.5% v/v or with compounds in DMSO with a resulting final DMSO concentration of 0.5% v/v. […]
# [4] = APR_HepG2_MicrotubuleCSK_24hr: Apredica 24-hour HepG2 Assay for Microtubule CSK Stabilty (AID 2282909); details: HepG2 microtubule cytoskeleton imaging, actives raise or lower the signal
# Procedure, shortened: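 HepG2 cells exposed 24 h to compounds at 0.39–200 uM (duplicate, 0.5% v/v DMSO final), then fixed, permeabilized and immunostained for alpha-tubulin with Hoechst 33342. Cytoskeleton imaged at 20x; bidirectional fit versus DMSO baseline.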
# [5] = APR_HepG2_MitoticArrest_24hr: Apredica 24-hour HepG2 Assay for Mitotic Arrest (AID 2282910); details: high-content imaging, actives raise or lower the signal
# Description: APR_HepG2_24hr is a cell-based, multiplexed-readout assay that uses HepG2, a human liver cell line, with measurements taken at 24 hours after chemical dosing in a 384-well plate.APR_HepG2_MitoticArrest_24hr is one of 10 assay component(s) measured or calculated from the APR_HepG2_24hr assay. It is designed to make measurements of cell phenotype, a form of morphology reporter, as detected with fluorescence intensity signals by HCS Fluorescent Imaging technology.Data from the assay component APR_HepG2_MitoticArrest_24hr was analyzed into 1 assay endpoint. This assay endpoint, APR_HepG2_MitoticArrest_24hr, was analyzed with bidirectional fitting relative to DMSO as the negative control and baseline of activity. Using a type of morphology reporter, measures of protein for gain or loss-of-signal activity can be used to understand the signaling at the pathway-level as they relate to the gene . Furthermore, this assay endpoint can be referred to as a primary readout, because this assay has produced multiple assay endpoints where this one serves a signaling function. To generalize the intended target to other relatable targets, this assay endpoint is annotated to the cell cycle intended target family, where the subfamily is arrest. […]
# [6] = APR_HepG2_MitoMembPot_24hr: Apredica 24-hour HepG2 Assay for Mitochondrial Membrane Potential (AID 2282911); details: imaging, actives raise or lower the signal
# Procedure, shortened: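 Human hepatoma HepG2 cultures received ten compound concentrations up to 200 uM for 24 hr. Membrane-potential dye signal, captured by automated fluorescence microscopy, was scored for gain or loss against DMSO controls.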
# [7] = APR_HepG2_MitoMass_24hr: Apredica 24-hour HepG2 Assay for Mitochondrial Mass (AID 2282912); details: high-content imaging, actives raise or lower the signal
# Description: APR_HepG2_24hr is a cell-based, multiplexed-readout assay that uses HepG2, a human liver cell line, with measurements taken at 24 hours after chemical dosing in a 384-well plate.APR_HepG2_MitoMass_24hr is one of 10 assay component(s) measured or calculated from the APR_HepG2_24hr assay. It is designed to make measurements of cell phenotype, a form of morphology reporter, as detected with fluorescence intensity signals by HCS Fluorescent Imaging technology.Data from the assay component APR_HepG2_MitoMass_24hr was analyzed into 1 assay endpoint. This assay endpoint, APR_HepG2_MitoMass_24hr, was analyzed with bidirectional fitting relative to DMSO as the negative control and baseline of activity. Using a type of morphology reporter, gain or loss-of-signal activity can be used to understand changes in the signaling. Furthermore, this assay endpoint can be referred to as a primary readout, because this assay has produced multiple assay endpoints where this one serves a signaling function. To generalize the intended target to other relatable targets, this assay endpoint is annotated to the cell morphology intended target family, where the subfamily is organelle conformation.
# as §1
# [8] = APR_HepG2_p53Act_24hr: Apredica 24-hour HepG2 Assay for p53 Activation (AID 2282913); details: high-content imaging, actives raise or lower the signal;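 note: p53 protein immunofluorescence averaged per cell in HepG2 with Hoechst nuclei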
# Procedure, shortened: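 Automated fluorescence imaging quantifies p53 immunostaining in HepG2 cells after a 24 hr exposure (0.39–200 uM, duplicate, 0.5% DMSO). Nuclei are located by Hoechst 33342 staining.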
# [9] = APR_HepG2_CellCycleArrest_72hr: Apredica 72-hour HepG2 Assay for Cell Cycle Arrest (AID 2282914); details: high-content imaging, actives raise or lower the signal
# Procedure, shortened: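 Cell cycle arrest in HepG2 was scored from nuclear DNA content after 72 hr compound treatment (0.39–200 uM). Activity, either gain or loss, was fitted against the DMSO baseline.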
# [10] = ACEA_ER_80hr: ACEA Biosciences xCELLigence Real-Time Cell Analysis on Estrogen Receptor Agonism for Proliferation (AID 2282667; active = hit-call score of the fitted dose curve at least 0.9, where 1 is the maximum); details: T47D proliferation, impedance (xCELLigence), 80 h
# Description: ACEA_ER is a cell-based, single-readout assay that uses T47D, a human breast cell line, with measurements taken at 80 hours after chemical dosing in a 96-well plate, although TO2 (mc0.srcf) used a 384-well plate. Differences in plate size can be ignored given data normalization.ACEA_ER_80hr is one of two assay component(s) measured or calculated from the ACEA_ER assay. It is designed to make measurements of real-time cell-growth kinetics, a form of growth reporter, as detected with electrical impedance signals by Real-Time Cell Electrode Sensor (RT-CES) technology.Data from the assay component ACEA_ER_80hr was analyzed into 1 assay endpoint. This assay endpoint, ACEA_ER_80hr_Positive, was analyzed in the positive analysis fitting direction relative to DMSO as the negative control and baseline of activity. Using a type of growth reporter, measures of the cells for gain-of-signal activity can be used to understand the signaling at the pathway-level as they relate to the gene ESR1. Furthermore, this assay endpoint can be referred to as a primary readout, because this assay has produced multiple assay endpoints where this one serves a signaling function. To generalize the intended target to other relatable targets, this assay endpoint is annotated to the nuclear receptor intended target family, where the subfamily is steroidal.
# The xCELLigence system Multi-E-Plate stations were used to measure the time-dependent response to chemicals. Each compound was tested in an eight-point, 1:4 serial dilution series starting at a maximum final concentration of 100 uM. A maximum starting concentration of 0.5% DMSO was present in the 100 uM chemical samples and was diluted along with the test article dilution series. The screen was performed in biological duplicate using two separate, 96-well, E-Plates 96 for each dilution series (n = 2). Positive controls (MG132 and E2) and a negative control (assay media) were tested in quadruplicate on each testing plate. […] Cellular responses were then recorded once every 5 min for the first 5 h, and once every hour for an additional 100 h.
smiles,measurement,setting,value
O=[N+]([O-])c1ccccc1[N+](=O)[O-],outcome,[1],inactive
same,AC50,[2],active: 90.1 µM
same,AC50,[3],active: 66.4 µM
same,AC50,[4],active: 60.7 µM
same,AC50,[5],active: 60.7 µM
same,outcome,[6],inactive
same,AC50,[7],active: 81.6 µM
same,AC50,[8],active: 34.8 µM
same,AC50,[9],active: 72.3 µM
ClCCOP(OCCCl)OCCCl,outcome,[10],inactive
ClCCNCCCl,outcome,[10],inactive
CC(C)OP(OC(C)C)OC(C)C,outcome,[10],inactive
